Target: Peroxisome proliferator-activated receptor gamma (Homo sapiens, UniProt P37231)
Assay: Activity at human PPARgamma transfected in HEK293 cells assessed as transactivation activity after 24 hrs by Dual-luciferase reporter gene assay
Format: cell-based

Sequences of proteins named here, by UniProt entry; tags and fusion partners are left off. A change or cut given only in a name is not applied to a line headed by its entry.
UniProt P37231: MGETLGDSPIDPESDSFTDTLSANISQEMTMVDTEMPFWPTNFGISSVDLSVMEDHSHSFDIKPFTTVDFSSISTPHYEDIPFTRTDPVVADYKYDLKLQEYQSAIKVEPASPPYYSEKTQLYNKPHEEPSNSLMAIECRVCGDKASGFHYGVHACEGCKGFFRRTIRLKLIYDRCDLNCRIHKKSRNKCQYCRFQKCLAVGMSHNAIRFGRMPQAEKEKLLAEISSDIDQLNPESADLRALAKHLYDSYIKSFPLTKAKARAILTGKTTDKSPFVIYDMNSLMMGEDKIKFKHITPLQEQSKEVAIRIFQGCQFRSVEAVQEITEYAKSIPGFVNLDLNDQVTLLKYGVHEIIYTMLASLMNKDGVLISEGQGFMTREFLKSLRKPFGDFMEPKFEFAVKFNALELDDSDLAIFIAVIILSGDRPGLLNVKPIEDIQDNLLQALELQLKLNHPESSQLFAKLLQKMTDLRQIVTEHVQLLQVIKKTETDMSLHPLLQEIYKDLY

- %max: 0%
Compound: Cc1c(C)n(Cc2ccc(-c3ccccc3C(=O)O)cc2)c2ccc(C(=O)NCc3cccnc3)cc12

Source: ChEMBL document CHEMBL3585309, “Peroxisome Proliferator-Activated Receptor γ (PPARγ) and Ligand Choreography: Newcomers Take the Stage” (J Med Chem, 2015)
